{"sequences": {"note": "By UniProt entry, the sequences of proteins in these tests, tags left out. Residues count along the entry.", "UniProt P22303, 32-614": "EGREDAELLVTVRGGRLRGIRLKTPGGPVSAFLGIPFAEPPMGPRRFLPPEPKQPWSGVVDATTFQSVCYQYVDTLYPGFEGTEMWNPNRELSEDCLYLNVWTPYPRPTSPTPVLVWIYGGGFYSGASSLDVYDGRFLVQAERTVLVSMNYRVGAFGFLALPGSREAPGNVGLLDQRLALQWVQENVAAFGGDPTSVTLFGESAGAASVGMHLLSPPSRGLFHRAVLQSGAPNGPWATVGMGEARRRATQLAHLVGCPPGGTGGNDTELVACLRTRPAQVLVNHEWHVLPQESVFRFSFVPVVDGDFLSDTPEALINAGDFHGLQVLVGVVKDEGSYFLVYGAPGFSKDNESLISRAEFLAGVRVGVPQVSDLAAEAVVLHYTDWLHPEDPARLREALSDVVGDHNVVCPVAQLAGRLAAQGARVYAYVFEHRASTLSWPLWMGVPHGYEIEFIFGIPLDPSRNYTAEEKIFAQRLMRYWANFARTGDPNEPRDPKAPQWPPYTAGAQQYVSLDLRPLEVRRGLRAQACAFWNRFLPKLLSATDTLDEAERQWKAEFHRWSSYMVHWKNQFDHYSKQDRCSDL"}, "source": "paper PMC7913148", "about": "“Anti-Cholinesterase Combination Drug Therapy as a Potential Treatment for Alzheimer’s Disease” (Brain Sciences, 2021)", "key": {"[1]": {"target": "recombinant human acetylcholinesterase (hAChE) (Homo sapiens, UniProt P22303)", "test": "biochemical"}, "[2]": {"target": "AChE within differentiated SH-SY5Y neuroblastoma cells (Homo sapiens, UniProt P22303)", "test": "cell-based"}}, "note": "Where a name gives a salt, the structure may show the parent alone."}
{"smiles": "COc1ccc2cc3[n+](cc2c1OC)CCc1cc2c(cc1-3)OCO2", "note": "[Ber, berberine hydrochloride]", "values": [{"measurement": "IC50", "setting": "[1]", "value": 3.13, "unit": "µM"}, {"measurement": "IC50", "setting": "[2]", "value": 4.84, "unit": "µM"}]}
